From patent US12559781B2, “Methods of producing polypeptides using a cell line resistant to apoptosis” (Genentech, Inc., priority 2018, dated 2026)

Tested on: HEK293 DKO cells
Conditions: 1 μM staurosporine; shake flask seed train cultures seeded at 0.8×10^6 cells/mL; HEK293 DKO (Bax/Bak knock-out) compared with parental HEK293; FIG. 1A

CN[C@@H]1C[C@H]2O[C@@](C)([C@@H]1OC)n1c3ccccc3c3c4c(c5c6ccccc6n2c5c31)C(=O)NC4 [staurosporine]
viability upon staurosporine addition: HEK293 DKO cells maintained higher viability compared to HEK293 cells
